# B1: TMP21 (rat) (natural protein)
# Amino acid sequences for entries named in this document (tags omitted).
# UniProt Q8CGU6, whole entry, looked up: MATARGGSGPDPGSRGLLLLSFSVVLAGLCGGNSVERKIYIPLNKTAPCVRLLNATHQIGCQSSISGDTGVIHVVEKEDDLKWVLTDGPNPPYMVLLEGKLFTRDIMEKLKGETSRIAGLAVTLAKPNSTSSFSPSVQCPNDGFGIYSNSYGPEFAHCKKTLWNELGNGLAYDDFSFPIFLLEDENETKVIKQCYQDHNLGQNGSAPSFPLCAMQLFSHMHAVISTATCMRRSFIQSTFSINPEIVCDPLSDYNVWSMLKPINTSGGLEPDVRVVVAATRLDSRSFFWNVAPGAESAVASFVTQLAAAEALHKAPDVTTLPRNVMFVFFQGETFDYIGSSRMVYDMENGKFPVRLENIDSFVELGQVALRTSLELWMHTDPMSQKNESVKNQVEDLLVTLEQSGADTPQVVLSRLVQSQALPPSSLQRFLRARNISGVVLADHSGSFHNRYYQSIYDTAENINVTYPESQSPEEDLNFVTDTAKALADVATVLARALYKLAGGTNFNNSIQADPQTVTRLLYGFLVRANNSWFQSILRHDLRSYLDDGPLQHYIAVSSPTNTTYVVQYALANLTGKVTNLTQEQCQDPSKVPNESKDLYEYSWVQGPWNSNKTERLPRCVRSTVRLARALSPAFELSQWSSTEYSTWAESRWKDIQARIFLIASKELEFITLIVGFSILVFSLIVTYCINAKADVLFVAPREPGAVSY
# chain: ISFHLPVNSRKCLREEIHKDLLVTGAYEITDQSGGAGGLRTHLKITDSAGHILYAKEDATKGKFAFTTEDYDMFEVCFESKGTGRIPDQLVILDMKHGVEAKNYEEIAKVEKLKPLEVELRRLEDLSESIVNDFAYMKKREEEMRDTNESTNTRVLYFSIFSMFCLIGLATWQVFYLRRFFKAKKLIE
# Biological target: γ-secretase complex (rat brain) (rat (endogenous in rat brain)) (UniProt Q8CGU6)
# Experiment: pull-down
binder,measurement,value
B1,percent of the total TMP21 associated with γ-secretase,< 0.2%
